Literature values, collected in US11766422B2, “Galloylated procyanidins for treating endovascular dysfunction and increasing blood flow” (UNIVERSITY OF SOUTH FLORIDA, priority 2018, dated 2023).

Tested on: S-G cells (immortalized gum epithelial cells)
Conditions: cited from earlier work

## catechin
  Effect: Cytotoxicity towards S-G cells (immortalized gum epithelial cells): ↑
